The target in one experiment is Stromelysin-1 (Homo sapiens, UniProt P08254).
Experiment [1] deals with T1, Matrilysin (Homo sapiens) (UniProt P09237).
T1 sequence (whole entry): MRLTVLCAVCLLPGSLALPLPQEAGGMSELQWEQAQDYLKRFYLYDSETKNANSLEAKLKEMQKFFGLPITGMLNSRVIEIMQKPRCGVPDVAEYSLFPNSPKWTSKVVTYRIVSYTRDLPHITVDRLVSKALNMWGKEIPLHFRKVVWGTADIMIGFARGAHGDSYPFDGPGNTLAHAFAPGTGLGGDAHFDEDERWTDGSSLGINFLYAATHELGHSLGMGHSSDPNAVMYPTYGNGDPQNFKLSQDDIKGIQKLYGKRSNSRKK
To be noted: 250 uM.

Amino acid sequences for entries named in this document (tags omitted). A change or cut given only in a name is not applied to a line headed by its entry.
UniProt P08254: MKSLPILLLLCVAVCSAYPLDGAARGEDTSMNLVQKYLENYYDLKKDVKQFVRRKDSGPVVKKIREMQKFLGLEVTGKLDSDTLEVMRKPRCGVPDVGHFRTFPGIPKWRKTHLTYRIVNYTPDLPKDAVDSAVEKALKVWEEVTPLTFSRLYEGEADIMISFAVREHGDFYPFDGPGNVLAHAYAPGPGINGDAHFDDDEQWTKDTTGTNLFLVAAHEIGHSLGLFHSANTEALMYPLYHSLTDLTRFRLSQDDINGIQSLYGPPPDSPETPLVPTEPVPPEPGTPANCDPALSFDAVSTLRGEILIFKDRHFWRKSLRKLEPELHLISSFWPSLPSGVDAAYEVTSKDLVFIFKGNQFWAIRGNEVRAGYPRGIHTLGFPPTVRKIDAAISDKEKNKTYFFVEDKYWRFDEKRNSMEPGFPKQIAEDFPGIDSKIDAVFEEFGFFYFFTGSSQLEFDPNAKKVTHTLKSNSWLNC

The target in experiment [2] is T2, Interstitial collagenase (Homo sapiens) (UniProt P03956).
T2 sequence (whole entry): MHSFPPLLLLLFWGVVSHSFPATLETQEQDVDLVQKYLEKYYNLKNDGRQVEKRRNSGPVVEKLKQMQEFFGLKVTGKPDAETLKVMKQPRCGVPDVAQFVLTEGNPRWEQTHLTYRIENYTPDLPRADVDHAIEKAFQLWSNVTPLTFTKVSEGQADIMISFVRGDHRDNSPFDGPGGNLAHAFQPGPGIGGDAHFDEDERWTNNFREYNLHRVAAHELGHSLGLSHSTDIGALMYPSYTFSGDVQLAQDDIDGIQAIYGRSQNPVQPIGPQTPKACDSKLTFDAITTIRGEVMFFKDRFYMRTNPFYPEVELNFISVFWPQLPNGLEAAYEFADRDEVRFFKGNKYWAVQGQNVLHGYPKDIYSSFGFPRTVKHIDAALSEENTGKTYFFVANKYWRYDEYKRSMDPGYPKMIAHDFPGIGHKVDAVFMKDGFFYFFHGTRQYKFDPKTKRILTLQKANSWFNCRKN
To be noted: 250 uM.

In the case of `Nc1ccc(Oc2ccc(S(=O)(=O)CC3CS3)cc2)cc1` (stereo not drawn) [listing 1 of 2 here], on Stromelysin-1, the affinity corresponds to a Ki of 23.4 µM. Regarding `Nc1ccc(Oc2ccc(S(=O)(=O)CC3CS3)cc2)cc1` (stereo not drawn) [listing 2 of 2 here], the inhibition (as a rule, the share of the control response that was lost under treatment) in experiment [1] was 16%; in experiment [2], 10%.

Source of the values: ChEMBL document CHEMBL1833788, “Selective water-soluble gelatinase inhibitor prodrugs” (J Med Chem, 2011).
